Measured values: paper PMC10440361 (Current Research in Pharmacology and Drug Discovery, 2023)

Key:
[1] = tested on: adult male cynomolgus monkeys; assay: Tolerability in monkeys after single-dose bolus; format: in vivo; details: non-human primates (cynomolgus monkeys), telemetry
[2] = tested on: adult male Sprague Dawley rats; assay: Safety/tolerability after SC administration in conscious rats; format: in vivo

[Phe2,Dab(Lys(Lys(Ac)-[Ala6,Glu9]))8]VT [OCE-205]
effect on body temperature [1]: no apparent OCE-205–related effect | deaths ([2]; SC 0.1 to 20 mg/kg): no deaths occurred | local reaction at the injection site (redness, skin irritation, erythema, or scab), animals affected ([2]; SC, dose levels of 4 and 20 mg/kg, six males): three of the six | bodyweight gain ([2]; four SC treatments with different dose levels up to 20 mg/kg): did not influence bodyweight gain
